The record followed here is ChEMBL document CHEMBL1124148 (J Med Chem, 1988).

Test [1] has as its target T1, Dihydrofolate reductase (Mus musculus, UniProt P00375).
T1 sequence (P00375 whole entry): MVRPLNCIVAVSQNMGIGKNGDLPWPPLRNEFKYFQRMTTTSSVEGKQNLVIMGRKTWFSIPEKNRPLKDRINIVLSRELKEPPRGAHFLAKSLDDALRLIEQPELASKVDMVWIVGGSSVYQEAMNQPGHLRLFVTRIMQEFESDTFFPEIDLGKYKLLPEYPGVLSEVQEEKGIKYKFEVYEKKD

The subject of test [2] is L1210 ( R81). The test is described as follows: Inhibitory concentration against growth of L1210/R81 cell line. It is filed as functional, cell-based. The conditions noted are these: Mus musculus.
For test [3], the system named is L1210. The test is described as follows: Inhibitory concentration against growth of L1210 cell line. Type of test: functional, cell-based. The conditions noted are these: Mus musculus.

In the case of `Nc1nc(N)c2nc(CNc3ccc(C(=O)NC(CCCNC(=O)CCC(=O)O)C(=O)O)cc3)cnc2n1` (centres undefined), the IC50 in test [1] was 32 nM; in test [2], 54000 nM; in test [3] it was 37 nM.

Turning to `Nc1nc(N)c2nc(CNc3ccc(C(=O)NC(CCCNC(=O)c4ccccc4C(=O)O)C(=O)O)cc3)cnc2n1` (centres undefined), in test [1], half-maximal inhibition (IC50) required 52 nM.
